The experiment has as its target T1, Epac2 (Mus musculus, UniProt Q9EQZ6).
T1 sequence (Q9EQZ6 1-993 isoform Q9EQZ6-3): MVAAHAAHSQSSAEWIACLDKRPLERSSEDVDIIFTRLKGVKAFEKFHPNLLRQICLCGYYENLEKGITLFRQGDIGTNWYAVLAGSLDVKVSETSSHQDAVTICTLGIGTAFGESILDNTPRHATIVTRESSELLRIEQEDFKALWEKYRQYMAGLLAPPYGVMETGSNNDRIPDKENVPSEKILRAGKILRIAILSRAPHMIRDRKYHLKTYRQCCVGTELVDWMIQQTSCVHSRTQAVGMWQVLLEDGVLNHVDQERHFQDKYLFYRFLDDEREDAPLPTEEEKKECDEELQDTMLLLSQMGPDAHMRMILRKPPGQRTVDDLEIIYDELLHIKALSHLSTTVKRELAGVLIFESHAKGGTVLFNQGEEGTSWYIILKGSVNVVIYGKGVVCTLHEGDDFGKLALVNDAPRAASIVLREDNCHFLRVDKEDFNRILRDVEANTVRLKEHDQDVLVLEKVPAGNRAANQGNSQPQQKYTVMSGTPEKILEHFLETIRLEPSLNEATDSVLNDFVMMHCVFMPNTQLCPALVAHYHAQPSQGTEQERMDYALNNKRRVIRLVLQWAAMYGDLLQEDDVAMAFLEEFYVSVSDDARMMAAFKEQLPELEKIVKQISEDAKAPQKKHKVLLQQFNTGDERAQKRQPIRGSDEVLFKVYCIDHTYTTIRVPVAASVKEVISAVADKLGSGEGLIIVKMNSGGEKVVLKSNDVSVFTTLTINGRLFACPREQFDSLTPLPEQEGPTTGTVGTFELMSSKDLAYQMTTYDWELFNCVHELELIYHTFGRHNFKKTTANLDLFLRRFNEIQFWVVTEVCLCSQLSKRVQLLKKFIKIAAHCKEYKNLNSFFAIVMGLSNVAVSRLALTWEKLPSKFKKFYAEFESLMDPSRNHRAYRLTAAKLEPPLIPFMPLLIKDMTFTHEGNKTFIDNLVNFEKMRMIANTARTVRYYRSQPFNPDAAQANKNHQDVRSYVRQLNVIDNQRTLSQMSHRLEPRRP
As to the kind of experiment: fluorescence mGDP nucleotide exchange. It is filed as biochemical.

By IC50 is commonly meant the concentration that gives 50% inhibition.

Structures are written as SMILES.

`Cc1ccc(S(=O)(=O)c2c(C)cc(C)cc2C)cc1` [ESI-05, 4-Methylphenyl-2,4,6-trimethylphenylsulfone] yielded an IC50 of approximately 200 nM.
